Experimental data published in patent US9611283B1 (dated 2017).

What was measured:
[1] = system: Ba/F3 EML4-ALK S1206R tumors; test: In vivo efficacy, xenograft of Ba/F3 cells expressing EML4-ALK S1206R; parameters: species or system SCID Beige mice; conditions: even at 200 mg/kg
[2] = system: Ba/F3 cells expressing native EML4-ALK; test: Accelerated in vitro mutagenesis screen

With `C[C@@H](Oc1cc(-c2cnn(C3CCNCC3)c2)cnc1N)c1c(Cl)ccc(F)c1Cl` [crizotinib] the “efficacy in xenograft mouse model” value [1] was “completely inefficacious”, the mutants observed [2] was “two” and the “mutants recovered in the screen” value ([2]; number of different mutants) was “Eighteen”.
